Yeast mating assay B: variants of the scFv Ab-14

Source: Li et al. 2023 (doi:10.1038/s41467-023-39022-2), MIT Lincoln Laboratory and A-Alpha Bio; data file from the FLAb repository.

The target is the same throughout: PDVDLGDISGINAS, from the HR2 region of SARS-CoV-2 spike.

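Phage display of a naive human antibody library on the peptide gave the parent. These sequences belong to a second round, designed from the earlier measurements on random variants of the parent. Their group label is 14H_Ctrl (Ctrl: baseline library sampled from a position-specific scoring matrix, with some repeated check sequences). In AlphaSeq, yeast of one mating type display the scFv and yeast of the other type display the target. Pairs that bind mate more often; barcode pairs of the diploids are counted by sequencing. The ratio of observed to expected reads was calibrated, replicate by replicate, on BCL2-family standards whose Kd was known from biolayer interferometry. The assay was run in six technical replicates.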

The variants keep the light chain, the linker and the frameworks of Ab-14 (scFv order VH, a (GGGGS)3 linker, VL).
VH: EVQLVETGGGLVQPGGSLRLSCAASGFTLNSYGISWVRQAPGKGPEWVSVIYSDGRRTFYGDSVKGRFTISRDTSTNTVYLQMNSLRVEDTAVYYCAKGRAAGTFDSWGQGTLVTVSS
VL: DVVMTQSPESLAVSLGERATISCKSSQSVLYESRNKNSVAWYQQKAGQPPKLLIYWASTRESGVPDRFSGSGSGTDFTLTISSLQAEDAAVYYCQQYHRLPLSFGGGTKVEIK

The whole VH of each variant is written out. Numbers give log10(Kd / nM), so 0 is 1 nM and 3 is 1 µM. Smaller is tighter. A mean of the replicates is given; it leaves out those without a signal. Where no diploid with the target was found in that replicate, the entry reads "n.d.": below detection, most likely a poor binder, though not proof of it. The parent sequence was in this pool as ten entries: three were never detected, three once, and four in most replicates, with averages from 0.34 to 2.37. As a blank, each scFv also met three strains without target: over all heavy chain designs, 1% of these pairings were detected, typically at 2.08 and seldom below 0.84. Also given: how often the same scFv was detected with the empty control strains. In the paper, a design with two or fewer of six values counts as a poor binder. A sequence measured in both rounds can read differently, since the two assays cover different ranges.

| # | VH | log10 Kd, replicates | log10 Kd (nM), mean | empty controls |
|---|---|---|---|---|
| 1 | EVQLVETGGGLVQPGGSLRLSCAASKFTLNSYGISWVRQAPGKGPEWVSVIYSDGRRTFYEDSVKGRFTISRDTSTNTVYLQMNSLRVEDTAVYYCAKGRAAGTFDQWGQGTLVTVSS | n.d. / n.d. / n.d. / n.d. / n.d. / n.d. | n.d. | 0 of 18 |
| 2 | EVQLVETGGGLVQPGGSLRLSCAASGFTLNSYGISWVRQAPGKGPEWVSVIYSDGMRTFYGDSVKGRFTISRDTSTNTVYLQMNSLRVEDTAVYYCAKGRAAGTFDSWGQGTLVTVSS | n.d. / 1.24 / n.d. / n.d. / n.d. / n.d. | 1.24 | 0 of 18 |
| 3 | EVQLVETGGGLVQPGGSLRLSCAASGFTLNSYGISWVRQAPGKGPEWVSVIYFDGRRTFYHDSVKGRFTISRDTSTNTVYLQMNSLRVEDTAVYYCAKGRAAGTFDSWGQGTLVTVSS | n.d. / n.d. / 1.89 / n.d. / n.d. / n.d. | 1.89 | 0 of 18 |
| 4 | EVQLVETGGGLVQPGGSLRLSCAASGTTLNSYGISWVRQAPGKGPEWVSVIYSDGRRTFYLDSVKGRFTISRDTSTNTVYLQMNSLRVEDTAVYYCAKGRAAGCFDHWGQGTLVTVSS | n.d. / n.d. / n.d. / n.d. / n.d. / n.d. | n.d. | 0 of 18 |
| 5 | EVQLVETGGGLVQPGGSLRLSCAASGFTLNSYGISWVRQAPGKGPEWVSVIYSDGLRTFYGDSVRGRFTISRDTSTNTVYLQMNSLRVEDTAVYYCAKGRAAGTFDSWGQGTLVTVSS | 0.64 / n.d. / n.d. / n.d. / 1.14 / n.d. | 0.89 | 0 of 18 |
| 6 | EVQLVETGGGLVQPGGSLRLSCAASGFTLEQYGISWVRQAPGKGPEWVSVIYSDGRSVFYGDSVKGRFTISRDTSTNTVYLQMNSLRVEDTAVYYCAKGFAAGAFKQWGQGTLVTVSS | n.d. / n.d. / n.d. / n.d. / n.d. / n.d. | n.d. | 0 of 18 |
| 7 | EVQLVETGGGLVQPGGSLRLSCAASGFELFSYGISWVRQAPGKGPEWVSVIYSDGRRTFYGDSVKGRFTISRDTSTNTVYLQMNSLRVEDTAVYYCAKGRVAGTFDLWGQGTLVTVSS | n.d. / -0.72 / n.d. / n.d. / n.d. / n.d. | -0.72 | 0 of 18 |
| 8 | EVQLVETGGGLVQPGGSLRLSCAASGFPPNSYGISWVRQAPGKGPEWVSVIYSDGRRKFYGDSVKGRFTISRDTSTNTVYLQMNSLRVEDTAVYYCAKGRAAGTFDSWGQGTLVTVSS | n.d. / n.d. / n.d. / 1.20 / n.d. / n.d. | 1.20 | 0 of 18 |
| 9 | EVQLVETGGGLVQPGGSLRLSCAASGFNLNSYGISWVRQAPGKGPEWVSVIYSDGRRTFYLDSVKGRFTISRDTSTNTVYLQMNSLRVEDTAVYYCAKGRAAGTFDSWGQGTLVTVSS | n.d. / n.d. / 1.97 / n.d. / n.d. / n.d. | 1.97 | 0 of 18 |
| 10 | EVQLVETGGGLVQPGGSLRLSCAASGFNINEYGISWVRQAPGKGPEWVSVIYSDGRRTFYGDSVKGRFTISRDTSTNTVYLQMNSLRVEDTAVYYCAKGRAAGTFDSWGQGTLVTVSS | 0.01 / 0.13 / 0.62 / 0.45 / 1.20 / 0.46 | 0.48 | 0 of 18 |
| 11 | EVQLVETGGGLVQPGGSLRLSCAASGTNLDSYGISWVRQAPGKGPEWVSVIYADGRRTFYVDSVKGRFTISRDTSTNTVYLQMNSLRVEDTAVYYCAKGRAGGTFDSWGQGTLVTVSS | 0.77 / 2.17 / 1.48 / 1.50 / 0.96 / 1.78 | 1.45 | 0 of 18 |
| 12 | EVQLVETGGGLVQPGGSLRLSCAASGFTLLSYGISWVRQAPGKGPEWVSVIYADGRRTFYQDKVRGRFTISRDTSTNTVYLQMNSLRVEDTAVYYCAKGREAGTFDSWGQGTLVTVSS | 1.84 / 1.74 / 0.83 / 1.59 / 1.77 / 1.50 | 1.54 | 0 of 18 |
| 13 | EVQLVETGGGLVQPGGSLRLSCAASGFTLNSYGISWVRQAPGKGPEWVSVIYSDGRRTFYQDSVRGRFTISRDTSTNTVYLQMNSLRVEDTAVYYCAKGRAAGTFDSWGQGTLVTVSS | n.d. / n.d. / n.d. / n.d. / n.d. / n.d. | n.d. | 0 of 18 |
| 14 | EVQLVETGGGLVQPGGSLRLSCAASGFTLNSYGISWVRQAPGKGPEWVSVIYSDGRRTAYGDSVKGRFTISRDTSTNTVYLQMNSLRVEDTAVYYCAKGSATGTFDSWGQGTLVTVSS | n.d. / 2.52 / n.d. / n.d. / n.d. / 2.35 | 2.44 | 0 of 18 |
| 15 | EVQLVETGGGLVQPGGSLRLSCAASGFTLNSYGISWVRQAPGKGPEWVSVIYSDGRRTMYGDSVKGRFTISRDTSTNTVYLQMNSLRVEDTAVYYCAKGSAAGTFDSWGQGTLVTVSS | n.d. / n.d. / n.d. / n.d. / n.d. / n.d. | n.d. | 0 of 18 |
| 16 | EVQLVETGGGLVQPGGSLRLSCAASGFTLNEYGISWVRQAPGKGPEWVSVIYSDGRRTFYGDSVKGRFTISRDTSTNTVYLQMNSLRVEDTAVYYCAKGVAAGRFDSWGQGTLVTVSS | n.d. / n.d. / n.d. / n.d. / n.d. / n.d. | n.d. | 0 of 18 |